Chains of the proteins cited; added tags and fusions are not shown.
UniProt O14786, whole entry, looked up: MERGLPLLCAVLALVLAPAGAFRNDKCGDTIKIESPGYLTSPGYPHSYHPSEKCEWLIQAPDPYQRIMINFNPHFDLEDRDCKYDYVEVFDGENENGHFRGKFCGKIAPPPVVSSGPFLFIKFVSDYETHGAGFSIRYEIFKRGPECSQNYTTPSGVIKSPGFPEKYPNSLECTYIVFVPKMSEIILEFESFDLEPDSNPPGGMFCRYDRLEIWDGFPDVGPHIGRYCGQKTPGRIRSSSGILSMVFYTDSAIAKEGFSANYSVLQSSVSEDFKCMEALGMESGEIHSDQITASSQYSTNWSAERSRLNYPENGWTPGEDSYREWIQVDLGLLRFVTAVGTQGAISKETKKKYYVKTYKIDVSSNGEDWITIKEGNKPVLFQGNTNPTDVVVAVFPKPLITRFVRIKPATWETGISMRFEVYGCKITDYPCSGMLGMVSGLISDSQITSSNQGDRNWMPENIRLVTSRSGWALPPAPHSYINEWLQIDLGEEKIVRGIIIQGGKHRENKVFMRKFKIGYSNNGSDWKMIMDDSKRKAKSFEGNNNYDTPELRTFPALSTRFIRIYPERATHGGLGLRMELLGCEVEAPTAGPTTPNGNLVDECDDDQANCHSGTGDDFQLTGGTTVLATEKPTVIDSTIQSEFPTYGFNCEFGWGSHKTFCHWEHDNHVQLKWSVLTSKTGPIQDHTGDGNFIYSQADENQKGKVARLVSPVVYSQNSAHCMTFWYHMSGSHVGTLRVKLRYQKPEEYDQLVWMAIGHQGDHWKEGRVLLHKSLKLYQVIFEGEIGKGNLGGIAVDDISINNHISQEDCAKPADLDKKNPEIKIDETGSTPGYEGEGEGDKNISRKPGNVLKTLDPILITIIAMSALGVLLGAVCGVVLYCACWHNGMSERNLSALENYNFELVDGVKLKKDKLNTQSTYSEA

This is a selection; strong and weak results do not stand in their true shares. The source made the active and inactive calls.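 The calls were made as follows: active = inhibition or corrected inhibition above about 18%, plus a signal ratio from 0.5 to 1.5 (limit read from the data, passing the limit was not always enough); inactive = the rest.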
What follows are compounds tested against Neuropilin-1 (Homo sapiens) (UniProt O14786) (assay: NRP-1/CendR peptide interaction modulators – biochemical, fluorescence polarization, uHTS, primary screen (AID 602438)). Conditions: FAM-RPARPAR peptide binding to NRP-1, fluorescence polarization; at 25 µM; stronger effect = higher value.
In the case of O=C(OC1CN2CCC1CC2)c1cccc(Cl)c1 (stereo not drawn), the inhibition is reported as inactive: -8.7%.
With C(Cc1nn[nH]n1)Cc1nn[nH]n1 the inhibition was inactive: -9.9%.
Nc1ccc([As](=O)(O)c2ccc([N+](=O)[O-])cc2)cc1 was tested, and the inhibition was inactive: 20.7%.
With O=[As](O)(c1ccccc1)c1ccc(O)cc1 the inhibition was inactive: -3.4%.
For CC(=O)NC(SC(=S)N(C)C)C(Cl)(Cl)Cl (stereo not drawn), the inhibition was inactive: -2.2%.
O=[N+]([O-])c1ncn(CCn2cnc([N+](=O)[O-])n2)n1 was tested, and the inhibition was inactive: -3.3%.
In the case of O=[N+]([O-])c1ccc(O)c(/C=N/Nc2ccc([N+](=O)[O-])cc2[N+](=O)[O-])c1, the inhibition is reported as inactive: 3.9%.
O=P(Nc1nc2ccccc2s1)(c1ccccc1)c1ccccc1 was tested, and the inhibition was inactive: -0.7%.
With C[C@H]1OP(=O)(Oc2ccccc2)[C@H](O)[C@H](O)[C@H]1N=[N+]=[N-] (stereo partly drawn) the inhibition was inactive: -4.7%.
For CN(C)C1(CNC(=O)c2ccc(Cl)c(S(N)(=O)=O)c2)CCCCC1, the inhibition was inactive: -5.2%.
In the case of O=P(Nc1ccccn1)(c1ccc(Br)cc1)c1ccc(Br)cc1, the inhibition is reported as inactive: -7.2%.
For COc1ccc(N)c([N+](=O)[O-])c1[N+](=O)[O-], the inhibition was inactive: 22.4%.
Nc1ccc(CCCCOc2ccccc2)cc1 was tested, and the inhibition was inactive: 15.4%.
With c1nnnn1CCn1cnnn1 the inhibition was inactive: -9.5%.
O=P(Nc1nccs1)(c1ccccc1)c1ccccc1 was tested, and the inhibition was inactive: 0.2%.
In the case of CC(C)C(=O)NC(Sc1ccccc1)C(Cl)(Cl)Cl (stereo not drawn), the inhibition is reported as inactive: -2.9%.
For CC(=O)Nc1ccc([As](=O)(O)O)c(O)c1, the inhibition was inactive: -4.6%.
For CC(=O)Nc1ccc(Oc2c([N+](=O)[O-])cc([N+](=O)[O-])cc2[N+](=O)[O-])cc1, the inhibition was inactive: 8.5%.
In the case of Cc1ccccc1CN(C)C(=O)COC(=O)C(O)(c1ccccc1)c1ccccc1, the inhibition is reported as inactive: 5.3%.
With C[C@H]1OP(=O)(Oc2ccccc2)C[C@@H]2O[C@@H]21 (stereo partly drawn) the inhibition was inactive: -7.8%.
With C[C@@H]1C=CCP(=O)(Oc2ccccc2)O1 (stereo partly drawn) the inhibition was inactive: 15.5%.
With CC(=O)c1ccc(N2CC2c2ccncc2)cc1 (stereo not drawn) the inhibition was inactive: 11.5%.
N#C/C(=C\c1ccc(N(CCBr)CCBr)cc1)C(N)=O was tested, and the inhibition was inactive: -27%.
In the case of COC(=O)C1(C)COP(=O)(NCc2ccccc2)OC1 (stereo not drawn), the inhibition is reported as inactive: 12.4%.
With CC(C)(C)C(=O)NC(Sc1ccccc1)C(Cl)(Cl)Cl (stereo not drawn) the inhibition was inactive: -3.7%.
CCc1cc(O)c([N+](=O)[O-])c(C)c1[N+](=O)[O-] was tested, and the inhibition was inactive: 2%.
O=P1(Nc2nc3ccc(Cl)cc3s2)COc2ccccc2O1 (stereo not drawn) was tested, and the inhibition was inactive: 4.9%.
In the case of CCOc1ccc(C2=NCC(CBr)S2)cc1 (stereo not drawn), the inhibition is reported as inactive: -2.4%.
For CC(NC(=O)COC(=O)C(O)(c1ccccc1)c1ccccc1)c1ccccc1 (stereo not drawn), the inhibition was inactive: 5%.
Cc1ccccc1OP(=O)(Nc1ccccn1)Oc1ccccc1C was tested, and the inhibition was inactive: 7.9%.
O=c1c2cc([N+](=O)[O-])ccc2[nH]c2c([N+](=O)[O-])cc([N+](=O)[O-])cc12 was tested, and the inhibition was inactive: -82.3%.
CN(C)C(=O)Oc1noc2ccccc12 was tested, and the inhibition was inactive: 11.7%.
In the case of O=C(OC1CN2CCC1CC2)c1ccccc1 (stereo not drawn), the inhibition is reported as inactive: -1%.
With CCC(=O)N1C2C3N(C(=O)CC)C1C1N(C(=O)CC)C(C(N1C(=O)CC)N3C(=O)CC)N2C(=O)CC the inhibition was inactive: -8%.
For COC(=O)c1cc2c(s1)N=C(c1ccccc1)N(C)P2(=O)N1CCOCC1 (stereo not drawn), the inhibition was inactive: -1.8%.
For CC(=O)NC(SC(=S)N(CC(C)C)CC(C)C)C(Cl)(Cl)Cl (stereo not drawn), the inhibition was inactive: -5.7%.
With Cc1ccc(OP(=O)(Nc2ccccn2)Oc2ccc(C)cc2)cc1 the inhibition was inactive: 2.7%.
With O=P1(N(CCCl)CCCl)OCCC2CCCCN21 (stereo not drawn) the inhibition was inactive: -1.2%.
With c1ccc(-c2nn[nH]n2)c(-c2nn[nH]n2)c1 the inhibition was inactive: -7.6%.
With Cc1ccc(NP(=O)(Oc2cccc(C)c2)Oc2cccc(C)c2)nc1 the inhibition was inactive: -7.6%.
O=C(NC1CCS(=O)(=O)C1)NP(=S)(Oc1ccccc1)Oc1ccccc1 (stereo not drawn) was tested, and the inhibition was inactive: 0.9%.
CCNC(=S)/N=C(\N)N[N+](=O)[O-] was tested, and the inhibition was inactive: -1.6%.
With Nc1cccc2ccc([As](=O)(O)O)cc12 the inhibition was inactive: 2.6%.
In the case of CCN(N=Nc1nonc1N)c1nonc1N, the inhibition is reported as active: 27.8%.
In the case of Cc1cc(SC(NC(=O)c2ccc(F)cc2)C(Cl)(Cl)Cl)ncn1 (stereo not drawn), the inhibition is reported as inactive: -4.3%.
CCOP(=O)(Nc1ccccc1)OCC was tested, and the inhibition was inactive: 9.3%.
For CN(C(=O)Cc1ccc(Cl)c(Cl)c1)[C@H]1CCCC[C@@H]1N1CCCC1, the inhibition was inactive: -3.4%.
With Cc1ccc(NP(=O)(Oc2ccccc2F)Oc2ccccc2F)nc1 the inhibition was inactive: 3%.
In the case of O=P(Nc1nc2ccc(Cl)cc2s1)(c1ccccc1)c1ccccc1, the inhibition is reported as inactive: -7.4%.
CN(C)P(=O)(N(C)C)n1c(Nc2ccccc2)nnc1-c1ccccc1 was tested, and the inhibition was inactive: 0.1%.
In the case of CC(=O)Nc1ccc([As](=O)(O)O)cc1, the inhibition is reported as inactive: 0.7%.
In the case of O=C(O)c1ccccc1[As](=O)(O)O, the inhibition is reported as inactive: 0.1%.
For CCCC1OP(N)(=O)OCC1CC (stereo not drawn), the inhibition was inactive: 0.3%.
In the case of O=[N+]([O-])C1C(O)C(O)C([N+](=O)[O-])C(O)C1O (stereo not drawn), the inhibition is reported as inactive: -7%.
For Oc1ccccc1CNc1ccccn1, the inhibition was inactive: -2.2%.
O=C(NC(Sc1ccncn1)C(Cl)(Cl)Cl)c1ccccc1 (stereo not drawn) was tested, and the inhibition was inactive: 8%.
In the case of Nc1cc(N)c2nonc2c1[N+](=O)[O-], the inhibition is reported as inactive: -3.8%.
For CC(C)CC(=O)NC(Sc1ccc(Cl)cc1)C(Cl)(Cl)Cl (stereo not drawn), the inhibition was inactive: -3.6%.
CN1CCCC(OC(=O)C(c2ccccc2)c2ccccc2)C1 (stereo not drawn) was tested, and the inhibition was inactive: 2.9%.
For Clc1ccc(Cl)c(NC2=NCC(CBr)S2)c1 (stereo not drawn), the inhibition was inactive: 2.7%.
For COc1ccccc1OP(=O)(Nc1ccc(C)cn1)Oc1ccccc1OC, the inhibition was inactive: 10.8%.
With Cc1ccc(OP(=O)(Nc2nccs2)Oc2ccc(C)cc2)cc1 the inhibition was inactive: -2.9%.
With CN(C(=O)Cc1ccc(Cl)c(Cl)c1)[C@H]1CCCC[C@H]1N1CCCC1 the inhibition was inactive: -8.2%.
With Cc1ccc(N/C(=N/P(=O)(N2CCOCC2)N2CCOCC2)N2CCOCC2)cc1 the inhibition was inactive: -9.5%.
NC(=O)c1cc([N+](=O)[O-])cc([N+](=O)[O-])c1N was tested, and the inhibition was inactive: 2.5%.
For CC1CCN(C(=O)Oc2c(Cl)cc(Cl)c3cccnc23)CC1, the inhibition was inactive: -2.5%.
For c1cc(-c2nn[nH]n2)ccc1-c1nn[nH]n1, the inhibition was inactive: -3.2%.
In the case of CC(C)c1nc(Nc2ccccc2)n(P(=O)(N(C)C)N(C)C)n1, the inhibition is reported as inactive: 2.8%.
For CC(C)=N/N=C(\N)N[N+](=O)[O-], the inhibition was inactive: 9.9%.
For CN(C)C(=O)OCCc1n(C)cc[n+]1C, the inhibition was inactive: -1.1%.
With CCN(/C(=N/P(=O)(N1CCOCC1)N1CCOCC1)N1CCOCC1)c1ccc(OC)cc1 the inhibition was inactive: 7.8%.
With Nc1ccc([As](=O)(O)c2ccc(N)cc2)cc1 the inhibition was inactive: 0.1%.
With C[N+]1=C2C=CC=CC=C2SC12C([N+](=O)[O-])=CC([N+](=O)[O-])=C[C-]2[N+](=O)[O-] (stereo not drawn) the inhibition was inactive: 19.2%.
For Cc1ccc(NP(=O)(Oc2ccccc2)Oc2ccccc2)nc1, the inhibition was inactive: -11%.
O=[N+]([O-])c1cc([N+](=O)[O-])c(CCNc2ccccc2)c([N+](=O)[O-])c1 was tested, and the inhibition was inactive: 12.2%.
In the case of CCc1nc2c(n1)c1c(non1O)c1c2no[n+]1[O-], the inhibition is reported as inactive: -5.9%.
CC(=O)N1C2C3N(C(C)=O)C1C1N(C(C)=O)C(C(N1C(C)=O)N3C(C)=O)N2C(C)=O was tested, and the inhibition was inactive: 13.3%.
O=[N+]([O-])c1cccc2n[nH]nc12 was tested, and the inhibition was inactive: 11.6%.
For COc1ccc(C2=NCC(CBr)S2)cc1 (stereo not drawn), the inhibition was inactive: 0.5%.
In the case of O=C(O)CNc1ccc([As](=O)(O)O)cc1, the inhibition is reported as inactive: 2.4%.
In the case of COC(=O)C1(C)COP(=O)(Nc2ccccc2)OC1 (stereo not drawn), the inhibition is reported as inactive: 6%.
With O=[N+]([O-])c1cccc(NC2=NCC(CBr)S2)c1 (stereo not drawn) the inhibition was inactive: 3%.
With O=[N+]([O-])c1ncn(CCn2ncnc2[N+](=O)[O-])n1 the inhibition was inactive: 14%.
For CC(C)(C)C(=O)NC(Sc1ccncn1)C(Cl)(Cl)Cl (stereo not drawn), the inhibition was inactive: 10.8%.
In the case of O=C(Nc1cc([As](=O)(O)O)ccc1O)c1ccccc1, the inhibition is reported as inactive: 3.4%.
With O=P1(N(CCCl)CCCl)OCCCS1 (stereo not drawn) the inhibition was inactive: 19.8%.
In the case of Cc1cc(SC(NC=O)C(Cl)(Cl)Cl)ncn1 (stereo not drawn), the inhibition is reported as inactive: -6.5%.
In the case of O=P(Nc1ccccn1)(c1cccc2ccccc12)c1cccc2ccccc12, the inhibition is reported as inactive: 6.7%.
O=[N+]([O-])c1ccc(Nc2ccc(Oc3ccc([N+](=O)[O-])cc3[N+](=O)[O-])cc2)c([N+](=O)[O-])c1 was tested, and the inhibition was inactive: 6.2%.
In the case of CCOC(=O)Nc1cccc([As](=O)(O)O)c1, the inhibition is reported as inactive: 7.7%.
For COP(=O)(OC)N1CC1c1ccccc1 (stereo not drawn), the inhibition was inactive: -14.7%.
CCCCOc1ccc(C(=O)NCC2(N3CCCCC3)CCCCC2)cc1OC was tested, and the inhibition was inactive: -5%.
Cc1cc(SC(NC(=O)c2ccccc2)C(Cl)(Cl)Cl)nc(C(C)C)n1 (stereo not drawn) was tested, and the inhibition was inactive: 9.3%.
O=C(O)C(O)c1ccc(N(CCCl)CCCl)cc1 (stereo not drawn) was tested, and the inhibition was inactive: -0.4%.
With CCOC(=O)Nc1ccc([As](=O)(O)O)c(O)c1 the inhibition was inactive: -4.9%.
CC1CCNP(=O)(N(CCCl)CCCl)O1 (stereo not drawn) was tested, and the inhibition was inactive: 0.2%.
CCC(C)N(CC(C)C)C(=S)SC(NC(C)=O)C(Cl)(Cl)Cl (stereo not drawn) was tested, and the inhibition was inactive: 7.5%.
With O=C(OC1CN2CCC1CC2)c1cccc([N+](=O)[O-])c1 (stereo not drawn) the inhibition was inactive: -0.3%.
For CSc1ccc(Nc2c([N+](=O)[O-])cc([N+](=O)[O-])cc2[N+](=O)[O-])cc1, the inhibition was inactive: 6.9%.
For CCOC(=O)c1ccc(NC(=O)C(C)(CCl)SC)cc1 (stereo not drawn), the inhibition was active: 30.1%.
With O=C(O)C(=O)c1ccc(N(CCCl)CCCl)cc1 the inhibition was inactive: 4.8%.
O=C(COc1ccccc1)OC1CN2CCC1CC2 (stereo not drawn) was tested, and the inhibition was inactive: 4.8%.
With O=C(Nc1ccncc1[N+](=O)[O-])c1ccc([N+](=O)[O-])cc1[N+](=O)[O-] the inhibition was inactive: 4.2%.
